# Values of other authors as cited in paper PMC9740255 (Cells, 2022).
# Biological target: hNET
# Set-up: method as in ref 32 (Tatsumi et al. 1997)
# Conditions: footnote a: hNET in HEK293 cells, [3H]nisoxetine; ref 32 (Tatsumi et al. 1997); read-out: NET Ki; cited from earlier work
compound,measurement,value
CC(NC(C)(C)C)C(=O)c1cccc(Cl)c1 (stereo not shown) [Bupropion],Ki,52 ± 1 µM
